Paper PMC6204601, “In Vivo Selectivity and Localization of Reactive Oxygen Species (ROS) Induction by Osmium Anticancer Complexes That Circumvent Platinum Resistance” (Journal of Medicinal Chemistry, 2018)

What was measured:
[1] = tested on: Tubingen wild-type zebrafish embryos; test: Zebrafish embryo toxicity (FET) test, TU-WT; settings: read-out: LC50 (Danio rerio) TU-WT, 96 h exposure
[2] = tested on: AB wild-type zebrafish embryos; settings: read-out: LC50 (Danio rerio) AB-WT, 96 h exposure
[3] = tested on: Singapore wild-type zebrafish embryos; settings: read-out: LC50 (Danio rerio) SG-WT, 96 h exposure

| Compound | LC50 [1] [nM] | LC50 [2] [nM] | LC50 [3] [nM] |
| --- | --- | --- | --- |
| Cc1ccc(C(C)C)cc1.[NH-]C(c1ccccc1)C([N-]S(=O)(=O)c1ccc([N+](=O)[O-])cc1)c1ccccc1.[Os+2] (stereo not drawn) [Complex 3, [Os(p-cymene)(Ns-DPEN)]] | 2200 ± 300 |  |  |
| Cc1ccc(C(C)C)cc1.O=S(=O)(c1ccccc1)[N]1[Os][NH][C@H](c2ccccc2)[C@H]1c1ccccc1 [Complex 5, [Os(p-cymene)(Bs-DPEN)]] |  | 3100 ± 300 |  |
| Cc1ccc(S(=O)(=O)[N]2[Os][NH][C@H](c3ccccc3)[C@H]2c2ccccc2)cc1.c1ccc(-c2ccccc2)cc1 [Complex 7, [Os(biphenyl)(Ts-DPEN)]] |  |  | 2200 ± 200 |
| [Os(p-cymene)(SRB-DPEN)] [Complex 6] | 3100 ± 100 | 4000 ± 100 | 2200 ± 100 |
